This is an account of results in patent publication US20020160986A1, “Compounds having activity as inhibitors of cytochrome P450RAI” (priority 2000, published 2002).

Sequences of proteins named here, by UniProt entry; tags and fusion partners are left off.
UniProt P10826, whole entry, species assumed: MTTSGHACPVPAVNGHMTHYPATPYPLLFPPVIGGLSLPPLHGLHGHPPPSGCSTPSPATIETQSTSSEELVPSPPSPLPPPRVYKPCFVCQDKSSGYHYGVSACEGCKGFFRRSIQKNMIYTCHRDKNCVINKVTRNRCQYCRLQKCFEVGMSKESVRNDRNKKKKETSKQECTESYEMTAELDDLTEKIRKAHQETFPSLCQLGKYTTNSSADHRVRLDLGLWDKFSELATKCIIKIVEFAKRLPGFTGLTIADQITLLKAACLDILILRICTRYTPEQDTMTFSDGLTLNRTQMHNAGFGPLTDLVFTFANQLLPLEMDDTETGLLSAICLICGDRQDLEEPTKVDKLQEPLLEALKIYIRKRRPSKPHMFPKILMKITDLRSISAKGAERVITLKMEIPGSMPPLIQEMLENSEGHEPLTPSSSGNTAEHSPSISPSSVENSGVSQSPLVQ

Usually Kd stands for the constant that tells how readily two partners part at equilibrium.

The target in this experiment is RARβ (Homo sapiens, UniProt P10826). Kind of experiment: ligand binding assay, RARβ. Particulars: read-out: RAR β Kd. From the text:
The results if the ligand binding assay for several preferred compounds of the invention are included in Table 1.

As for “4-[4-(1-Benzylmethylamino-cyclopropyl)-phenylethynyl]-benzoic acid [Compound 116]”, the Kd came to 732 nM.
